ChEMBL document CHEMBL1158445, “Second generation of BACE-1 inhibitors part 2: Optimisation of the non-prime side substituent” (Bioorg Med Chem Lett, 2009)

Amino acid sequences for entries named in this document (tags omitted). A change or cut given only in a name is not applied to a line headed by its entry.
UniProt P56817: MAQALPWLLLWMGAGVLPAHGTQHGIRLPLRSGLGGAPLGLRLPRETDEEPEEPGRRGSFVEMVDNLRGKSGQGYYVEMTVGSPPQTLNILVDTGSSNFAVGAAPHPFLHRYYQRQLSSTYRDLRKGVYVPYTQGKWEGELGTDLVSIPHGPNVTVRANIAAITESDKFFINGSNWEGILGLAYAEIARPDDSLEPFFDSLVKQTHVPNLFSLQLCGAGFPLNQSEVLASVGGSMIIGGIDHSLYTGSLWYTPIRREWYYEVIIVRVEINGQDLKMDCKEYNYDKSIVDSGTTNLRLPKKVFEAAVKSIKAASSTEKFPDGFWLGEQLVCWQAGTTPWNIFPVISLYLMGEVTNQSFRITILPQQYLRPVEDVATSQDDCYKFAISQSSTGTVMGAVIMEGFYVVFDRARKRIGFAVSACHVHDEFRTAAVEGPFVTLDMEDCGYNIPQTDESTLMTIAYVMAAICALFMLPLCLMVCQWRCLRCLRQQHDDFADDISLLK

Biological target: Beta-secretase 1 (Homo sapiens, UniProt P56817)
Test: Inhibition of BACE1

IC50: 2 nM
SMILES: CCc1cn2c3c(cc(C(=O)N[C@@H](Cc4ccccc4)[C@H](O)CNCc4cccc(OC)c4)cc13)N(C)S(=O)(=O)CC2
